{"sequences": {"note": "Chains of the proteins cited; added tags and fusions are not shown. Lines headed by an entry give the natural chain unless they say otherwise; changes in a name come on top.", "UniProt Q9H244": "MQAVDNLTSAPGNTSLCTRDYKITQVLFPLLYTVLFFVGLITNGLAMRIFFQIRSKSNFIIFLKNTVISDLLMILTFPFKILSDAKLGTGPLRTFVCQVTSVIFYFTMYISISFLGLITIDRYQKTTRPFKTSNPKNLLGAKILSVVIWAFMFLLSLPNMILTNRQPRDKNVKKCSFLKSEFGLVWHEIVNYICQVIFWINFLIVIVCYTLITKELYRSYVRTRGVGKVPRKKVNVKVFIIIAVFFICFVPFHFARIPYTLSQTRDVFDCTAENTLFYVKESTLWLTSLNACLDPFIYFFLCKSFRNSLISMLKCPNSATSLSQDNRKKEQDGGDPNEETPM"}, "source": "ChEMBL document CHEMBL2401653", "about": "“Synthesis, structure-property relationships and pharmacokinetic evaluation of ethyl 6-aminonicotinate sulfonylureas as antagonists of the P2Y₁₂ receptor” (Eur J Med Chem, 2013)", "key": {"P2Y purinoceptor 12 [1]": {"target": "T1, P2Y purinoceptor 12 (Homo sapiens, UniProt Q9H244)"}, "P2Y purinoceptor 12 [2]": {"target": "T1, P2Y purinoceptor 12", "remark": "listed apart in the source"}}, "data": [{"smiles": "CCOC(=O)c1cc(C#N)c(N2CC(NC(=O)NS(=O)(=O)c3ccc(Cl)s3)C2)nc1C", "values": [{"measurement": "IC50", "setting": "P2Y purinoceptor 12 [1]", "result": 6.3, "unit": "nM"}, {"measurement": "IC50", "setting": "P2Y purinoceptor 12 [2]", "result": 25, "unit": "nM"}]}]}
